Activity change, negative = inhibition data for 3 compounds are collected here from PubChem BioAssay AID1347055 (National Center for Advancing Translational Sciences (NCATS), 2019).

By UniProt entry, the sequences of proteins in these tests, tags left out.
UniProt P07954, whole entry: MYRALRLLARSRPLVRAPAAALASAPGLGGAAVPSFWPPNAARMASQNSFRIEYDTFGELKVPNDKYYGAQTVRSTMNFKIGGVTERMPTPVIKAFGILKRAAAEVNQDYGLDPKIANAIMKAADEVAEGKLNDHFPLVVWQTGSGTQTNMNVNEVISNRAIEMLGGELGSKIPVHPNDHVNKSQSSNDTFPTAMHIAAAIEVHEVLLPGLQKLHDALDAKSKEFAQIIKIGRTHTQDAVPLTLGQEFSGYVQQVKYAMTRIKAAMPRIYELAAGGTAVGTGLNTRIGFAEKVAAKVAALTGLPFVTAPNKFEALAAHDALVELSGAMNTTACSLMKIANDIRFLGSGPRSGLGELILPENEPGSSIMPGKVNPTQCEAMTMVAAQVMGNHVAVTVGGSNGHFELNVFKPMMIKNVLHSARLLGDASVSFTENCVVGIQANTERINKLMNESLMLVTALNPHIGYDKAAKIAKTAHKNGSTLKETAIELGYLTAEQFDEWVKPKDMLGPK

Several values for one entry are separate records, joined by “and”; a condition that tells them apart may be missing. Identical values can stand only once. This is a selection; strong and weak results do not stand in their true shares. Inconclusive results are not listed. Activity calls are given as the source filed them. The call rests on the fitted dose curve; in most records, active means well fitted inhibition curve with a large enough effect; inconclusive means small, poorly fitted or top-dose-only effect, or effect the other way; inactive means flat fitted curve, though single readings scatter.
On the % scale 0 is the no-effect control and ±100 the full control effect.

The assay deals with Fumarate hydratase, mitochondrial (Homo sapiens) (UniProt P07954). The assay is described as follows: Identification of activators of human fumarate hydratase by quantitative high-throughput screening. Further: the screen sought activators but most active calls are inhibition curves; nearly all actives have a fitted effect of over 45% in size. To be noted: FH coupled MDH/diaphorase resazurin fluorescence, 15 min; at 79.9 µM (top of the series) unless noted. From the text:
Fumarate hydratase (FH) is a metabolic enzyme that is part of the Krebs-cycle, and reversibly catalyzes the hydration of fumarate to malate. Mutations of the FH gene have been associated with fumarate hydratase deficiency (FHD), hereditary leiomyomatosis, renal cell cancer (HLRCC), and other diseases. Currently there are no high-quality small molecule probes for studying human fumarate hydratase. To address this, we developed a quantitative high throughput screening (qHTS) FH assay and screened a total of 57,037 compounds in dose-response. While no inhibitors of FH were confirmed, a series of phenyl-pyrrolo-pyrimidine-diones (12 compounds) were identified as activators of human fumarate hydratase. […] The binding of two compounds from the series to human fumarate hydratase was confirmed by microscale thermophoresis. […]
For primary high-throughput screen, 3 ul of FH solution (containing 13.33nM human fumarate hydratase, 13.33IU/ml malic dehydrogenase, 0.2mM NAD, 0.067mg/ml diaphorase and 0.067mM resazurin in the assay buffer (50 mM Tris pH 8.0, 5 mM MgCl2, 0.01% Brij 3) was dispensed into each well in a black solid bottom 1536-well assay plate (Greiner Bio-One) using a BioRAPTR FRD dispenser (Beckman Coulter, Brea, CA). A 1536-well pintool dispenser outfitted with 20 nl pins (Wako Automation, San Diego, CA) was used to transfer 20 nL of DMSO-solubilized compound (Cherrypick plates) to each 1536-well assay plate. […] Plates were immediately transferred to a ViewLux microplate imager (PerkinElmer, Waltham, MA), and any resulting resorufin fluorescence was measured (exitation/emission, 525/598 nm) at 0 and 15 minutes. […] Fluorescence from each well was normalized using enzyme-free and DMSO-treated control wells on each plate, and changes in fluorescence (delta RFU) were calculated using the difference in fluorescent signal for each well at 15 minutes versus 0 minutes.
On to `CCC(=O)N(c1ccccc1)C1(COC)CCN(CCc2cccs2)CC1`, for which the activity change, negative = inhibition was inactive: -5.07%.

Turning to `CCC(=O)N(c1ccccc1)C1(COC)CCN(CCn2nnn(CC)c2=O)CC1`, the activity change, negative = inhibition is inactive: 0.75%. Turning to `CN(CCCl)CCCl`, the activity change, negative = inhibition was inactive: -0.659% [at 53.3 µM] and inactive: -0.117% [at 53.3 µM].
